Measured values published in patent US6060451.

Molecular target: bovine α-thrombin (bovine) (UniProt P00735)

**Q.** Which IC50, inhibition of fibrinogen clotting does the source give for “native desulfo hirudin^45-65 (from UniProt P01050) (peptide)” here?
**A.** Its IC50, inhibition of fibrinogen clotting is 940 nM.
